Measurements reported in patent US7632933B2, “Corticotropin releasing factor 2 receptor agonists” (priority 2002, dated 2009).

Key:
CRF2R = target: T1, CRF2R (Homo sapiens, UniProt Q13324); assay: CRF2R agonist activity (EC50 and Emax), called comparative CRF binding; type: cell-based; details: CRF2R EC50 (nM), CRF2R
T1 sequence (Q13324 1-411): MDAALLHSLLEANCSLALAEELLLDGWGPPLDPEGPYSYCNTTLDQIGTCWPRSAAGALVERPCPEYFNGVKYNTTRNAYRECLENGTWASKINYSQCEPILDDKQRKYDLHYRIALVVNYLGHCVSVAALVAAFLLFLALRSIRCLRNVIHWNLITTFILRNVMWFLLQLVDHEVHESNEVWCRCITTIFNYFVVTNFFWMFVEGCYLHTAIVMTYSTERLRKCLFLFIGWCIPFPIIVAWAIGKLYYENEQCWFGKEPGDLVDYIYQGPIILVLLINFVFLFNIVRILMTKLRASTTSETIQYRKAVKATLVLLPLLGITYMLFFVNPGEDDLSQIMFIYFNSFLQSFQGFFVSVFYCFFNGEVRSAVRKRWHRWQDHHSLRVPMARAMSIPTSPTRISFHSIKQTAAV
How it was run: (§1)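 Functional activity of peptides at each receptor subtype is determined in whole cells by measuring cAMP induction, either directly in lysates or through reporter expression downstream of a cAMP-responsive element, relative to vehicle.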

CRF1R = target: T2, CRF1R (Homo sapiens, UniProt P34998); assay: CRF1R agonist activity (EC50 and Emax), called comparative CRF binding; type: cell-based; details: CRF1R EC50 (nM), CRF1R
T2 sequence (P34998 24-415): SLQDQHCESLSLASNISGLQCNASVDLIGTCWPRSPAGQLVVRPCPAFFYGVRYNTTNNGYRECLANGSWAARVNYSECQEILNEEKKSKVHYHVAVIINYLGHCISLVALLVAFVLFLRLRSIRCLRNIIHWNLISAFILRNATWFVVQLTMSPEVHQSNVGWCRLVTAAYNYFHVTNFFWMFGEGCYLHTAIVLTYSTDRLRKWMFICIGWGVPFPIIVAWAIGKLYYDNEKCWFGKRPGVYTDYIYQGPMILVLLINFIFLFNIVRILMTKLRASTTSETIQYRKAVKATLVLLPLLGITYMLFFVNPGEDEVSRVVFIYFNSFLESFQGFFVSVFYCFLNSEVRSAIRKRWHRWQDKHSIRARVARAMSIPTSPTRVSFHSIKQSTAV
How it was run: as §1

Compound | EC50 (CRF2R) [nM] | EC50 (CRF1R) [nM]
CC[C@H](C)[C@H](NC(=O)[C@@H](NC(=O)[C@H](CC(=O)O)NC(=O)[C@H](CC(C)C)NC(=O)[C@H](CC(C)C)NC(=O)[C@H](CC(C)C)NC(=O)[C@H](CCCNC(=N)N)NC(=O)[C@H](CC(N)=O)NC(=O)[C@H](CC(N)=O)NC(=O)[C@H](C)NC(=O)[C@H](C)NC(=O)[C@H](CCC(N)=O)NC(=O)[C@H](CCC(N)=O)NC(=O)[C@H](CCCCN)NC(=O)[C@H](CCC(=O)O)NC(=O)[C@H](CCCCN)NC(=O)[C@H](CCC(=O)O)NC(=O)[C@H](CCC(N)=O)NC(=O)[C@H](CCCCN)NC(=O)[C@H](CCC(=O)O)NC(=O)[C@@H](NC(=O)[C@H](CCC(=O)O)NC(=O)[C@@H](NC(=O)[C@@H](NC(=O)[C@H](CCCCN)NC(=O)[C@H](CCCNC(=N)N)NC(=O)[C@H](CC(C)C)NC(=O)[C@H](CC(C)C)NC(=O)[C@H](Cc1c[nH]c2ccccc12)NC(=O)[C@@H](NC(=O)[C@@H]1CCCN1C(=O)[C@H](CC(C)C)NC(=O)[C@H](CC(=O)O)NC(=O)[C@@H](NC(=O)[C@H](CO)NC(=O)[C@@H](NC(=O)[C@@H]1CCCN1C(=O)[C@@H]1CCCN1C(=O)CNC(=O)[C@@H]1CCC(=O)N1)[C@@H](C)CC)[C@@H](C)CC)[C@@H](C)O)C(C)C)[C@@H](C)CC)[C@@H](C)CC)[C@@H](C)O)C(N)=O [compound 284] | ≥ 100 | ≥ 1000
CC[C@H](C)[C@H](NC(=O)[C@@H](NC(=O)[C@H](CC(=O)O)NC(=O)[C@H](CC(C)C)NC(=O)[C@H](CC(C)C)NC(=O)[C@H](CC(C)C)NC(=O)[C@H](CCCNC(=N)N)NC(=O)[C@H](CC(N)=O)NC(=O)[C@H](CC(N)=O)NC(=O)[C@H](C)NC(=O)[C@H](C)NC(=O)[C@H](CCC(N)=O)NC(=O)[C@H](CCC(N)=O)NC(=O)[C@H](CCCCN)NC(=O)[C@H](CCC(=O)O)NC(=O)[C@H](CCCCN)NC(=O)[C@H](CCC(=O)O)NC(=O)[C@H](CCC(N)=O)NC(=O)[C@H](CCCCN)NC(=O)[C@H](CCC(=O)O)NC(=O)[C@@H](NC(=O)[C@H](CCC(=O)O)NC(=O)[C@@H](NC(=O)[C@H](CCSC)NC(=O)[C@H](CCCCN)NC(=O)[C@H](CCCNC(=N)N)NC(=O)[C@H](CC(C)C)NC(=O)[C@H](CC(C)C)NC(=O)[C@@H](NC(=O)[C@@H](NC(=O)[C@@H]1CCCN1C(=O)[C@H](CC(C)C)NC(=O)[C@H](CC(=O)O)NC(=O)[C@@H](NC(=O)[C@H](CO)NC(=O)[C@@H](NC(=O)[C@@H]1CCCN1C(=O)[C@@H]1CCCN1C(=O)CNC(=O)[C@@H]1CCC(=O)N1)[C@@H](C)CC)[C@@H](C)CC)[C@@H](C)O)[C@@H](C)O)[C@@H](C)CC)[C@@H](C)CC)[C@@H](C)O)C(N)=O [compound 42] | > 100 | > 1000
CC[C@H](C)[C@H](NC(=O)[C@@H](NC(=O)[C@H](CC(=O)O)NC(=O)[C@H](CC(C)C)NC(=O)[C@H](CC(C)C)NC(=O)[C@H](CC(C)C)NC(=O)[C@H](CCCNC(=N)N)NC(=O)[C@H](CC(N)=O)NC(=O)[C@H](CC(N)=O)NC(=O)[C@H](C)NC(=O)[C@H](C)NC(=O)[C@H](CCC(N)=O)NC(=O)[C@H](CCC(N)=O)NC(=O)[C@H](CCCCN)NC(=O)[C@H](CCC(=O)O)NC(=O)[C@H](CCCCN)NC(=O)[C@H](CCC(=O)O)NC(=O)[C@H](CCC(N)=O)NC(=O)[C@H](CCCCN)NC(=O)[C@H](CCC(=O)O)NC(=O)[C@@H](NC(=O)[C@H](CCC(=O)O)NC(=O)[C@@H](NC(=O)[C@H](CCSC)NC(=O)[C@H](CCCCN)NC(=O)[C@H](CCCNC(=N)N)NC(=O)[C@H](CC(C)C)NC(=O)[C@H](CC(C)C)NC(=O)[C@H](Cc1ccc(O)cc1)NC(=O)[C@H](Cc1c[nH]c2ccccc12)NC(=O)[C@@H]1CCCN1C(=O)[C@H](CC(C)C)NC(=O)[C@H](CC(=O)O)NC(=O)[C@@H](NC(=O)[C@H](CO)NC(=O)[C@@H](NC(=O)[C@@H]1CCCN1C(=O)[C@@H]1CCCN1C(=O)CNC(=O)[C@@H]1CCC(=O)N1)[C@@H](C)CC)[C@@H](C)CC)[C@@H](C)CC)[C@@H](C)CC)[C@@H](C)O)C(N)=O [compound 55] | 7.95 | 11.6
CC[C@H](C)[C@H](NC(=O)[C@@H](NC(=O)[C@H](CC(=O)O)NC(=O)[C@H](CC(C)C)NC(=O)[C@H](CC(C)C)NC(=O)[C@H](CC(C)C)NC(=O)[C@H](CCCNC(=N)N)NC(=O)[C@H](CC(N)=O)NC(=O)[C@H](CC(N)=O)NC(=O)[C@H](C)NC(=O)[C@H](C)NC(=O)[C@H](CCC(N)=O)NC(=O)[C@H](CCC(N)=O)NC(=O)[C@H](CCCCN)NC(=O)[C@H](CCC(=O)O)NC(=O)[C@H](CCCCN)NC(=O)[C@H](CCC(=O)O)NC(=O)[C@H](CCC(N)=O)NC(=O)[C@H](CCCCN)NC(=O)[C@H](CCC(=O)O)NC(=O)[C@@H](NC(=O)[C@H](CCC(=O)O)NC(=O)[C@@H](NC(=O)[C@@H](NC(=O)[C@H](CCCCN)NC(=O)[C@H](CCCNC(=N)N)NC(=O)[C@H](CC(C)C)NC(=O)[C@H](CC(C)C)NC(=O)[C@@H](NC(=O)[C@@H](NC(=O)[C@@H]1CCCN1C(=O)[C@H](CC(C)C)NC(=O)[C@H](CC(=O)O)NC(=O)[C@@H](NC(=O)[C@H](CO)NC(=O)[C@@H](NC(=O)[C@@H]1CCCN1C(=O)[C@@H]1CCCN1C(=O)CNC(=O)[C@@H]1CCC(=O)N1)[C@@H](C)CC)[C@@H](C)CC)[C@@H](C)CC)[C@@H](C)CC)C(C)C)[C@@H](C)CC)[C@@H](C)CC)[C@@H](C)O)C(N)=O [compound 297] | ≥ 100 | ≥ 1000
CC[C@H](C)[C@H](NC(=O)[C@@H](NC(=O)[C@H](CC(=O)O)NC(=O)[C@H](CC(C)C)NC(=O)[C@H](CC(C)C)NC(=O)[C@H](CC(C)C)NC(=O)[C@H](CCCNC(=N)N)NC(=O)[C@H](CC(N)=O)NC(=O)[C@H](CC(N)=O)NC(=O)[C@H](C)NC(=O)[C@H](C)NC(=O)[C@H](CCC(N)=O)NC(=O)[C@H](CCC(N)=O)NC(=O)[C@H](CCCCN)NC(=O)[C@H](CCC(=O)O)NC(=O)[C@H](CCCCN)NC(=O)[C@H](CCC(=O)O)NC(=O)[C@H](CCC(N)=O)NC(=O)[C@H](CCCCN)NC(=O)[C@H](CCC(=O)O)NC(=O)[C@@H](NC(=O)[C@H](CCC(=O)O)NC(=O)[C@@H](NC(=O)[C@H](CCSC)NC(=O)[C@H](CCCCN)NC(=O)[C@H](CCCNC(=N)N)NC(=O)[C@H](CC(C)C)NC(=O)[C@H](CC(C)C)NC(=O)[C@H](CC(=O)O)NC(=O)[C@@H](NC(=O)[C@@H]1CCCN1C(=O)[C@H](CC(C)C)NC(=O)[C@H](CC(=O)O)NC(=O)[C@@H](NC(=O)[C@H](CO)NC(=O)[C@@H](NC(=O)[C@@H]1CCCN1C(=O)[C@@H]1CCCN1C(=O)CNC(=O)[C@@H]1CCC(=O)N1)[C@@H](C)CC)[C@@H](C)CC)[C@@H](C)CC)[C@@H](C)CC)[C@@H](C)CC)[C@@H](C)O)C(N)=O [compound 28] | ≥ 100 | > 1000
CC[C@H](C)[C@H](NC(=O)[C@H](CCCNC(=N)N)NC(=O)[C@H](C)NC(=O)[C@H](CC(N)=O)NC(=O)[C@@H](NC(=O)[C@@H](NC(=O)[C@H](C)NC(=O)[C@H](CCC(N)=O)NC(=O)[C@H](CCC(N)=O)NC(=O)[C@H](CCCCN)NC(=O)[C@H](CCC(=O)O)NC(=O)[C@H](CCCCN)NC(=O)[C@H](CCC(=O)O)NC(=O)[C@H](CCC(N)=O)NC(=O)[C@H](CCCCN)NC(=O)[C@H](CCC(=O)O)NC(=O)[C@@H](NC(=O)[C@H](CCC(=O)O)NC(=O)[C@@H](NC(=O)[C@H](CC(C)C)NC(=O)[C@@H](NC(=O)[C@H](CCCNC(=N)N)NC(=O)[C@H](CC(C)C)NC(=O)[C@H](CC(C)C)NC(=O)[C@H](Cc1ccc(O)cc1)NC(=O)[C@@H](NC(=O)[C@@H]1CCCN1C(=O)[C@@H](NC(=O)[C@H](CC(=O)O)NC(=O)[C@@H](NC(=O)[C@H](CO)NC(=O)[C@@H](NC(=O)[C@@H]1CCCN1C(=O)[C@@H]1CCCN1C(=O)CNC(=O)[C@@H]1CCC(=O)N1)[C@@H](C)CC)[C@@H](C)CC)C(C)C)[C@@H](C)O)[C@@H](C)CC)[C@@H](C)CC)[C@@H](C)CC)[C@@H](C)O)[C@@H](C)O)C(=O)N[C@@H](CC(C)C)C(=O)N[C@@H](C)C(=O)N[C@@H](CCCNC(=N)N)C(=O)N[C@H](C(N)=O)C(C)C [compound 169] | 17.8 | 978
